Test results from ChEMBL document CHEMBL5634139, “Novel substituted 4-(Arylethynyl)-Pyrrolo[2,3-d]pyrimidines negative allosteric modulators (NAMs) of the metabotropic glutamate receptor subtype 5 (mGlu5) Treat depressive disorder in mice” (Eur J Med Chem, 2023).

The chains behind the UniProt entries cited, without tags or fusion partners.
UniProt P31424, whole entry: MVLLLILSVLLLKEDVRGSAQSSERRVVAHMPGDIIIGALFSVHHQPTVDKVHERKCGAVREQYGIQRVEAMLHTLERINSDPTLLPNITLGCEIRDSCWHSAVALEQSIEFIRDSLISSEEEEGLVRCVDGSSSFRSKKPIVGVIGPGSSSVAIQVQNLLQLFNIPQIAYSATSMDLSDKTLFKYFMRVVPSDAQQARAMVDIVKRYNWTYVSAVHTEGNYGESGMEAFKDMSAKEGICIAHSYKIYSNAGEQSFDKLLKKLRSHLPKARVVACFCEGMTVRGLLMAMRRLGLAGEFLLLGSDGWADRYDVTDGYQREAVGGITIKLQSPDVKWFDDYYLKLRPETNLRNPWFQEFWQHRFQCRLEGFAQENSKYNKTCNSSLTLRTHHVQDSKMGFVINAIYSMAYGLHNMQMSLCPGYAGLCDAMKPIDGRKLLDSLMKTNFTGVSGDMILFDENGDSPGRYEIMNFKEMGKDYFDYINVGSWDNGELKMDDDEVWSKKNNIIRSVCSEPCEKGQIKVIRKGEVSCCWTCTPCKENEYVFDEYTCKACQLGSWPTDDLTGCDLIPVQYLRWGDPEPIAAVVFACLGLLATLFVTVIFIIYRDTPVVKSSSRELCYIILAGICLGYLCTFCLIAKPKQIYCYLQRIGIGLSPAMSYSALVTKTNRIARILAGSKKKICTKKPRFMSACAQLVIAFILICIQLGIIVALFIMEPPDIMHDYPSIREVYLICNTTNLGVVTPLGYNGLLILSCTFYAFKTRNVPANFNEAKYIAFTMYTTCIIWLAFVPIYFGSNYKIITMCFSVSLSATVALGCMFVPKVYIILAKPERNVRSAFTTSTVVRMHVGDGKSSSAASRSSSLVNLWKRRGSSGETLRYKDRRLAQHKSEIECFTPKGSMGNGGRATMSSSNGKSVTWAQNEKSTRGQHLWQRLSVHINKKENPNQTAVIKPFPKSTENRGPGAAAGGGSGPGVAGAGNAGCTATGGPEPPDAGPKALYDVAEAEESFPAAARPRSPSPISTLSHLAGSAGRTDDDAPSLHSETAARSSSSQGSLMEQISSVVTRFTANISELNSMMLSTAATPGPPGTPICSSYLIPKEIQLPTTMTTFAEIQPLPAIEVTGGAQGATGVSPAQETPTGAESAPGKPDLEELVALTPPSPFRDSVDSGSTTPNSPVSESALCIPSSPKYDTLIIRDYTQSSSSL

Molecular target: Metabotropic glutamate receptor 5 (Rattus norvegicus, UniProt P31424)
Experiment: Negative allosteric modulation of rat mGluR5 expressed in HEK293 assessed as decrease in intracellular calcium incubated for 30 mins by Fluo-6 calcium dye based FLIPR assay
Type: functional, cell-based

With `Cc1cccc(C#Cc2ccccc2)n1` the IC50 was 20.8 nM.
